One molecule from patent publication US8497349B2, “Use of multivalent synthetic ligands of surface nucleolin for treating cancer or inflammation” (Centre National de la Recherche Scientifique (CNRS), priority 2006, dated 2013) can be followed below.

Data set [1] has as its system NIH-3T3 cells. It is filed as cell-based. Here is the method: FIG. 3. Effect of A. anti-nucleolin (anti Nu), B. isotypical IgG, C. peptide F3, and D. HB-19 on the proliferation of NIH-3T3 cells stimulated by HARP. Quiescent NIH-3T3 cells are stimulated or not by 4 nM of HARP in the presence or not of HB19 at the concentrations indicated. After 24 hours of incubation, cell proliferation was determined by measuring the incorporation of tritiated thymidine. The results are given as a percentage with respect to the control stimulated by HARP (100%). MSD (threshold), (**p<0.01 and ***p<0.001).
FIG. 4. Effect of pretreatment of NIH-3T3 cells with HB19 for one hour on proliferation induced by HARP. NIH-3T3 cells were treated with HB19 for one hour then washed and stimulated or not by 3.6 nM of HARP. After 24 hours of incubation, cell proliferation was determined by measuring the incorporation of tritiated thymidine. The results are given as a percentage with respect to the control stimulated by HARP (100%). MSD (threshold), (**p<0.01 and ***p<0.001).
FIG. 12. Effect of HB-19 and Nucant 01 on the growth of NIH-3T3 cells stimulated by HARP. Quiescent NIH-3T3 cells were stimulated or not by 4 nM of HARP in the presence of HB19 or Nucant 01 at the concentrations indicated. After 24 hours of incubation, cell proliferation was determined by measuring the incorporation of tritiated thymidine. The results (mean of 3 points) are given as the percentage of cell proliferation with respect to the control stimulated by HARP in the absence of HB19 and Nucant 01 (100% cell proliferation).
FIG. 13. Effect of HB-19, Nucant 2 and Nucant 3 on the growth of NIH-3T3 cells stimulated by HARP. Quiescent NIH-3T3 cells were stimulated or not by 4 nM of HARP in the presence of HB19, Nucant 2 or Nucant 3 at the concentrations indicated (0.1, 0.25 and 0.5>M). After 24 hours of incubation, cell proliferation of NIH-3T3 cells was determined by measuring the incorporation of tritiated thymidine. The results (mean of 3 points) are given as the percentage of cell proliferation with respect to the control stimulated by HARP (100% cell proliferation). The IC50 concentrations (concentration leading to 50% inhibition of cell proliferation with respect to the control stimulated by HARP) are also given.
The role played by nucleolin in the biological activity of the HARP molecule was studied in a series of experiments: the mitogenic activity of HARP, tested by measuring the incorporation of tritiated thymidine by NIH 3T3 cells, was evaluated in the presence or absence of a monoclonal antibody which specifically recognizes nucleolin.
The effect of Nucant 01 on the proliferation of NIH-3T3 cells stimulated by HARP was compared with that of pentavalent compound HB-19. Quiescent NIH-3T3 cells were stimulated or not by 4 nM of HARP in the presence of HB19 or Nucant 01 at the concentrations indicated (0.1, 0.2, 0.4, 1, 2 and 4 μM). After 24 hours of incubation, cell proliferation of NIH-3T3 cells was determined by measuring the incorporation tritiated thymidine as described earlier.
The effect of Nucant 2 and Nucant 3 on the proliferation NIH-3T3 cells triggered by HARP was compared to that of pentavalent compound HB-19. Quiescent NIH-3T3 cells were stimulated or not by 4 nM by HARP in the presence of HB19, Nucant 2, or Nucant 3 at the concentrations indicated (0.1, 0.25 and 0.5 μM). After 24 hours of incubation, cell proliferation of NIH-3T3 cells was determined by measuring the incorporation tritiated thymidine as described earlier.

Data set [2] can be described thus: Half-life in serum at 37° C. It is filed as in vitro ADME. To be noted: human or bovine (foetal calf); human serum or foetal calf serum at 37° C. An excerpt: The term “standard peptide bond” means an amide bond of formula (—CONH—) which is normally present between 2 amino acids in a natural protein. Such a bond is sensitive to the action of proteases. The term “modified peptide bonds Ψ” means a chemical bond between 2 amino acids of chemical formula distinct from the standard peptide bond of formula (—CONH—). […] The term “protease”, also known as “peptidase” or “proteolytic enzyme”, means any enzyme which cleaves the standard peptide bonds in proteins. This process is known as proteolytic cleavage. This involves the use of a water molecule which is what leads to proteases being classified as hydrolases. The proteases namely include proteases known as N-peptidases which carry out the cleavage of the N-terminal end of proteins. These proteases are particularly inconvenient in terms of the in vivo stability of peptides without modified peptide bonds.

The test system of data set [3] is TNF-α. Briefly: TNF-α production by human primary PBMC stimulated by LPS (ELISA). It is filed as cell-based. The settings on record: for production of TNF-α in response to various LPS preparations: LPS 100 ng/ml, 20 hours. Here is the method: (§1) FIG. 18. Inhibition by HB-19 of the production of TNF-α by primary human mononuclear peripheral blood cells (PBMC) stimulated by various LPS preparations. PBMCs were isolated by centrifugation on a Ficoll density gradient using whole human blood EDTA-potassium and resuspended in RPMI 1640 containing 1% human serum AB (Invitrogen). Cells at a concentration of 10^6 cell/0.5 ml, in the absence (O) or presence (1 and 5 μM) of HB-19, were stimulated with 100 ng/ml of LPS from Escherichia coli type 0111: B4 and 055:B5, and LPS from Salmonella enterica serotype Re 595. The same PBMCs were stimulated with PMA: Ionomycin (Phorbol 12-myristate 13-acetate: Ionomycin) at 20 ng/ml:1 μM. PBMC cultures were incubated at 37° C. in an incubator with 5% CO2 Levels of TNF-α protein were measured by ELISA in culture supernatants collected after 20 hours of incubation.
as §1, with “PBMCs” for “FIG. 18. Inhibition by HB-19 of the production of TNF-α by primary human mononuclear peripheral blood cells (PBMC) stimulated by various LPS preparations. PBMCs”, “absence (0)” for “absence (O)”, “type 0111:B4” for “type 0111: B4”, “12-myristate 13-acetate:Ionomycin)” for “12-myristate 13-acetate: Ionomycin)”, “5% CO2. The level” for “5% CO2 Levels”, “protein was” for “protein were”
For orientation: In an ELISA, binding on a coated surface is turned into a signal by an enzyme label.

Like-named read-outs stand apart in the source and are kept apart here.

For `CCCC[C@H](NC(=O)[C@H](CCCCNC(=O)[C@H](CCCNC(=N)N)NC(=O)[C@@H]1CCCN1C[C@@H](N)CCCCN)NC(=O)[C@H](CCC(=O)O)NC(=O)[C@H](CCCCNC(=O)[C@H](CCCNC(=N)N)NC(=O)[C@@H]1CCCN1C[C@@H](N)CCCCN)NC(=O)[C@@H]1CCCN1C(=O)CNC(=O)[C@H](CCCCNC(=O)[C@H](CCCNC(=N)N)NC(=O)[C@@H]1CCCN1C[C@@H](N)CCCCN)NC(=O)[C@H](CCCCN)NC(=O)[C@H](CCCCNC(=O)[C@H](CCCNC(=N)N)NC(=O)[C@@H]1CCCN1C[C@@H](N)CCCCN)NC(=O)[C@H](CCCNC(=N)N)NC(=O)[C@@H]1CCCN1C[C@@H](N)CCCCN)C(N)=O` [HB19, 5[Kpsi(CH2N)PR]-TASP], the IC50 in data set [1] (4 nM HARP, experiment of FIG. 12, read-out: concentration leading to 50% inhibition of cell proliferation) turned out to be 200 nM; in data set [1] (24 h) it was 100 nM. For the same molecule, the “inhibition of the effect triggered by 4 nM of HARP” value in data set [1] (0.5 μM of HB-19, 24 hours) turned out to be 81%. For the same molecule, the “inhibition of HARP-induced proliferation after pretreatment” value in data set [1] (cells pretreated for one hour, washed, then stimulated by HARP) is on record as “comparable inhibition”. Further, in data set [2], the half-life (usually the time needed for the level to fall by half in the phase considered) is greater than 1440 min. Further, the “production of TNF-α in response to various LPS preparations” value is “inhibited to a similar degree to the base level” in data set [3] (5 μM of HB-19); “inhibits the production of TNF-α by PBMC in a dose-dependent manner” in data set [3] (1 and 5 μM). In data set [3] (PMA:Ionomycin 20 ng/ml:1 μM), the “production of TNF-α in response to PMA-Ionomycin” value is reported as “does not have an effect”. For the same molecule, in data set [3] (freshly isolated PBMC, no stimulation), the “constitutive production of TNF-α” value is “not affected”.
